Source: ChEMBL document CHEMBL5032503, “Propranolol Activates the Orphan Nuclear Receptor TLX to Counteract Proliferation and Migration of Glioblastoma Cells” (J Med Chem, 2021)
The source made the active and inactive calls. No cut-off for these calls is given here.

Sequences of proteins named here, by UniProt entry; tags and fusion partners are left off. A change or cut given only in a name is not applied to a line headed by its entry.
UniProt Q9Y466: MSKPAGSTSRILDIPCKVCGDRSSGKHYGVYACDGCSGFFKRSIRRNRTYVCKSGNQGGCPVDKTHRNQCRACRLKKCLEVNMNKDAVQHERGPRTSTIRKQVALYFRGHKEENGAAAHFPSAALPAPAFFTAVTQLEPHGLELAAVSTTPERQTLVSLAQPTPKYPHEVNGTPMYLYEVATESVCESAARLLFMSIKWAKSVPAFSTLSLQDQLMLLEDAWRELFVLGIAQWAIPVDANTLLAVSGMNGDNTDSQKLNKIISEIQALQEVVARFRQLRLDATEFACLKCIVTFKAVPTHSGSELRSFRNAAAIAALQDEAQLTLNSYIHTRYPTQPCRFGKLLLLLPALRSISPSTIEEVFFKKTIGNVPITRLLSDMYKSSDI

Target: Nuclear receptor subfamily 2 group E member 1 (Homo sapiens, UniProt Q9Y466)
Assay: Agonist activity at TAE expressed in human HEK293T cells coexpressing human full-length TLX/Gal4-VP 16 assessed as renilla luciferase reporter activity incubated for 14 hrs by Dual-glo luciferase
Format: cell-based

CC(C)NCC(O)c1ccc(NS(C)(=O)=O)cc1 (racemic) [SOTALOL]
Activity: inactive
